Hits are enriched below; roughly 13% of the tested compounds scored in any of these assays.
Sfp inh: blocks B. subtilis Sfp PPTase activity | Potency, µM, most hits filed as inhibitors | 310,000 compounds, 3.5% hits | Biochemical Sfp PPTase activity, qHTS;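 note: the enzyme is Sfp with the accession as filed and its product quenches rhodamine fluorescence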
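With Hepes-Na pH 7.6 buffer containing 10 mM MgCl2, Sfp (15 nM) modified BHQ-2-YbbR (12.5 uM) using rhodamine-CoA (5 uM). Two reads 30 minutes apart at 525/598 nm yielded each well's rate.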
JMJD2E inh: blocks human JMJD2E demethylase activity; B2RXH2; JMJD2E catalytic domain, FDH-coupled NADH fluorescence (FDH is formaldehyde dehydrogenase); Potency, µM (highest dose often 57.1 µM), usual class: inhibitors; 230,000 compounds, 1.6% hits; active = well fitted inhibition curve with a large enough effect, not every such curve was filed as active; inconclusive = small, poorly fitted or top-dose-only effect, or another doubt; inactive = no such curve, though single readings can be large or run the other way; note: nearly all actives have a fitted effect of over 50% in size
ALDH1A1 inh: inhibitors of human aldehyde dehydrogenase 1A1; P00352; Purified ALDH1A1, NADH fluorescence, propionaldehyde substrate; Potency, µM (doses to about 75.3 µM), hits mostly inhibitors; 220,000 compounds, 7.3% hits; active = well fitted inhibition curve with a large enough effect, not every such curve was filed as active; inconclusive = small, poorly fitted or top-dose-only effect, or another doubt; inactive = no such curve, though single readings can be large or run the other way
miR-21 reporter: raises the signal of a miR-21 reporter; Potency, µM (doses to about 38.3 µM); HeLa miR-21 FLuc reporter, luciferase, 48 h; AID 2288; 340,000 tested, under 10 active; active = well fitted rising curve with a large enough effect; inconclusive = small, poorly fitted or top-dose-only effect; inactive = no such curve, though single readings can be large or run the other way;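 further: miR-21 action dims this reporter so a rising signal means less miR-21 action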
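Luminescence from a firefly luciferase reporter carrying a miR-21 binding site downstream, stably expressed under a CMV promoter in HeLa cells that make miR-21 endogenously, reports miRNA modulation after 48 h compound exposure up to approximately 40uM final.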
LMNA splice mod: changes lamin A minigene splicing in HeLa cells; HeLa LMNA splicing GFP/RFP minigene ratio, 48 h; Potency, µM (top dose mostly 46.1 µM), usual class: inhibitors; 200,000 compounds, 0.01% hits; active = well fitted inhibition curve with a large enough effect in the signal ratio, with a control signal flat, not every such curve was filed as active; inconclusive = small, poorly fitted or top-dose-only effect, or effect the other way, or a change in a side signal; the % refers to the signal ratio
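Read-out is the ratio of GFP to DsRed2 object intensity, acquired by 488 nm laser-scanning cytometry on HeLa lamin A-EGFP minigene reporter cells. Compound incubation 48 hrs at 37 °C in Opti-MEM with 2% FBS; DMSO 0.5% final.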
G9a inh: G9a (human) methyltransferase inhibition. Q96KQ7. G9a H3K9 monomethylation, AlphaScreen, 2 h. Potency, µM (top dose mostly 102 µM), usual class: inhibitors. 350,000 compounds, 8.8% hits; note: nearly all actives have a fitted effect of over 75% in size
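Methyltransferase reactions run at room temperature for 2 h (20 nM enzyme, 500 nM biotin-H3K9 peptide, 20 uM SAM) after a 15 min compound preincubation; product detected by AlphaScreen beads and anti-H3K9me1 antibody.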
Each line names hits and unclear results; the compound was inactive in the other large screens. Unless noted, calls come from the whole dose curve; as a rule, active = well fitted curve in the direction sought with a large enough effect; inconclusive = small, poorly fitted or top-dose-only effect, or another doubt; inactive = no such curve, though single readings can be large; an effect the other way counts as inactive or inconclusive.

[O-]C1=N/[N+](=C/c2ccc(Cl)cc2)CC1	ALDH1A1 inh inconclusive, G9a inh 8.9µM
CCn1c(C)[n+](CC(O)COCC2CC=CCC2)c2ccccc21 (stereo unspecified)	G9a inh 10µM
O=C(Nc1cccc2ncccc12)c1ccccc1Cl	G9a inh 79µM (no result: JMJD2E inh, ALDH1A1 inh, LMNA splice mod)
CCCCCCC(C)(C)c1cc(OC)c2c(c1)OC(C)(C)[C@@H]1CC=C(C)C[C@@H]21	none (no result: JMJD2E inh, miR-21 reporter, LMNA splice mod)
C=C(CC1CC(O)[C@]2(C)OC3CC4OC5C[C@]6(C)O[C@]7(C)CCC8OC9C[C@]%10(C)OC%11C(C)=CC(=O)OC%11CC%10OC9C[C@@H](C)C8OC7CC6O[C@]5(C)C/C=C\C4OC3CC2O1)C(=O)O (stereo partly specified)	ALDH1A1 inh 4µM, G9a inh inconclusive (no result: LMNA splice mod)
C=C(C=O)CC1CC(O)[C@]2(C)OC3C[C@@H]4OC5C[C@]6(C)O[C@]7(C)CCC8OC9C[C@]%10(C)OC(/C(C)=C\CO)C(O)CC%10OC9CC(C)C8OC7CC6O[C@]5(C)C/C=C\C4OC3CC2O1 (stereo partly specified)	none (no result: Sfp inh, JMJD2E inh, ALDH1A1 inh, miR-21 reporter, LMNA splice mod)
Cn1c(O)c(C=NC(CC(N)=O)C(=O)O)c(=O)n(C)c1=O (stereo unspecified)	G9a inh inconclusive
COC(=O)[C@]1(C)CC[C@@]2(C)CC[C@@]3(C)C4=CC=C5C(=CC(=O)C(O)=C5C)[C@@]4(C)CC[C@@]3(C)C2C1 (stereo partly specified)	JMJD2E inh inconclusive, G9a inh inconclusive (no result: miR-21 reporter, LMNA splice mod)
ClC(Br)Br	none (no result: Sfp inh, JMJD2E inh, miR-21 reporter, LMNA splice mod, G9a inh)
O=C(O)c1[nH]c(=O)[nH]c(=O)c1F	Sfp inh inconclusive, LMNA splice mod inconclusive, G9a inh 28µM
Cc1ccccc1N1C(=O)NC(=O)/C(=C\c2cnn(-c3ccccc3)c2)C1=O	Sfp inh 25µM, ALDH1A1 inh 18µM, LMNA splice mod inconclusive, G9a inh inconclusive
CCn1c(C)cc(/C=C2\C(=O)NC(=O)N(c3ccccc3C)C2=O)c1C	G9a inh inconclusive
C=CCCl	none (no result: Sfp inh, JMJD2E inh, miR-21 reporter, LMNA splice mod, G9a inh)
C1C[C@@H]2CN(CCCN3CCOCC3)[C@@H](C1)O2	none (no result: Sfp inh, JMJD2E inh, miR-21 reporter, LMNA splice mod, G9a inh)
O=Cc1ccccc1	ALDH1A1 inh 3.2µM (no result: Sfp inh, JMJD2E inh, miR-21 reporter, LMNA splice mod, G9a inh)
O=C1CC(N2CC=C(c3ccccc3)CC2)C(=O)N1c1ccc(F)cc1 (stereo unspecified)	JMJD2E inh inconclusive, ALDH1A1 inh inconclusive, G9a inh 10µM
CCCOc1ccc(N2C(=O)CC(N3CC=C(c4ccccc4)CC3)C2=O)cc1 (stereo unspecified)	ALDH1A1 inh 10µM, G9a inh inconclusive (no result: LMNA splice mod)
CCCOc1ccc(N2CC(C(=O)Nc3ccccc3F)CC2=O)cc1 (stereo unspecified)	G9a inh inconclusive
O=c1[nH]cnc2[nH]cc(CN3CCCCC3)c12	none (no result: Sfp inh, JMJD2E inh, miR-21 reporter, LMNA splice mod, G9a inh)
CCOc1ccc(N2C(=O)NC(=O)/C(=C\c3ccc(N4CCCCC4)o3)C2=O)cc1	LMNA splice mod inconclusive, G9a inh 45µM
O=C1NC(=O)N(c2ccc3c(c2)OCO3)C(=O)/C1=C/c1ccc(N2CCCC2)o1	G9a inh inconclusive
COc1ccc(N2C(=O)/C(=C/c3ccc(C)o3)C(=O)NC2=S)cc1	Sfp inh 22µM, G9a inh 10µM (no result: JMJD2E inh, ALDH1A1 inh, LMNA splice mod)
COc1ccc(-n2c(/C=C3/C(=O)Nc4ccccc43)nc3ccccc3c2=O)cc1	none (no result: LMNA splice mod)
Cc1ccc(/C=C2\C(=O)NC(=S)N(c3cccc(F)c3)C2=O)o1	Sfp inh 18µM, G9a inh 1.8µM (no result: JMJD2E inh, ALDH1A1 inh, LMNA splice mod)
CN1CCN(c2ccc(/C=C3\C(=O)NC(=S)N(c4cccc(Br)c4)C3=O)o2)CC1	ALDH1A1 inh inconclusive, G9a inh inconclusive
CCOc1ccc(N2C(=O)/C(=C/c3ccc(C)o3)C(=O)NC2=S)cc1	Sfp inh 22µM (no result: JMJD2E inh, ALDH1A1 inh, LMNA splice mod, G9a inh)
C[C@@H]1C[C@H](C)C[C@H](C)[C@@H](O)CC(=O)O[C@H]([C@H]2CCC[C@H]2C(=O)O)C/C=C/C=C(/C#N)[C@H](O)[C@@H](C)C1	none (no result: JMJD2E inh, ALDH1A1 inh, miR-21 reporter, LMNA splice mod, G9a inh)
O=C=NCCCCN=C=O	none (no result: JMJD2E inh, ALDH1A1 inh, miR-21 reporter, LMNA splice mod, G9a inh)
Cc1cc2c(cc(C(=O)N3CCC(C(=O)NC4CCCC4)CC3)n2Cc2c(F)cccc2Cl)o1	Sfp inh 50µM, miR-21 reporter inconclusive (no result: ALDH1A1 inh, LMNA splice mod)
